Assay results reported in patent US20250129055A1, “GLUCOSIDE DERIVATIVE, AND PREPARATION METHOD THEREFOR AND APPLICATION THEREOF” (BEIJING INCREASE INNOVATIVE DRUG CO., LTD., priority 2020, published 2025).

The chains behind the UniProt entries cited, without tags or fusion partners.
UniProt P31639, whole entry: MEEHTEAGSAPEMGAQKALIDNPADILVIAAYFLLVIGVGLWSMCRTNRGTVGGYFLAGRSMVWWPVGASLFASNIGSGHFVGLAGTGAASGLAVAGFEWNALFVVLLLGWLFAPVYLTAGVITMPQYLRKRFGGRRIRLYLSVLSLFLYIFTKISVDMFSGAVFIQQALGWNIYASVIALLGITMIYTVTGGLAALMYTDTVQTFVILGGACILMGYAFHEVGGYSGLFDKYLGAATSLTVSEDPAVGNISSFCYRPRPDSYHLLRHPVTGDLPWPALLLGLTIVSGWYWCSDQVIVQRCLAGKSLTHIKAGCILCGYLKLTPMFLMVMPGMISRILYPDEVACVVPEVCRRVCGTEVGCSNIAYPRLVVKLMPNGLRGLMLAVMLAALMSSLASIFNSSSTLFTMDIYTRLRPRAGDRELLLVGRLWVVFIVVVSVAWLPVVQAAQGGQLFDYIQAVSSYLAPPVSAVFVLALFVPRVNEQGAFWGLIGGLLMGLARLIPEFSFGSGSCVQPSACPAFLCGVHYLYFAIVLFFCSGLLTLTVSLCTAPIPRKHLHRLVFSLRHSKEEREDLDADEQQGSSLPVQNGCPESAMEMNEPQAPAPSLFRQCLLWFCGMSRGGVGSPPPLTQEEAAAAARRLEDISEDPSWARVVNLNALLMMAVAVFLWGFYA

Molecular target: SGLT2 (Homo sapiens (Human), UniProt P31639)
Test: In vitro SGLT2 inhibitory activity: 1-NBDG uptake by CHO-SGLT2 cells
Type: cell-based
Settings: read-out: IC50 inhibiting SGLT2

SMILES	IC50
CO[C@H]1O[C@@H](c2ccc(Cl)c(Cc3ccc4c(c3)CC4)c2)[C@H](O)[C@@H](O)[C@@H]1O	1.36 nM
CS[C@H]1O[C@@H](c2ccc(Cl)c(Cc3ccc4c(c3)CCO4)c2)[C@H](O)[C@@H](O)[C@@H]1O	3.52 nM
